# Reference: PubChem BioAssay AID686971 (National Center for Advancing Translational Sciences (NCATS), 2013)
# This is a selection; strong and weak results do not stand in their true shares. Records with an inconclusive call do not appear. Active and inactive are the calls of the source. The call rests on the fitted dose curve; in most records, active means well fitted cell-killing curve with a large enough effect; inconclusive means small, poorly fitted or top-dose-only effect, or effect the other way, or another doubt; inactive means no such curve, though single readings can be large or run the other way.
# Assay: qHTS for induction of synthetic lethality in tumor cells producing 2HG: qHTS for the HT-1080-IDH1KD cell line;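 on activity, negative = toxicity: 0% = DMSO wells and -100% = cell-free medium wells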
# Details: HT-1080 IDH1 knockdown viability, ATP luminescence, 48 h; series mostly up to 46.1 µM; activity, negative = toxicity: at the top concentration
# Potency means the concentration at half of the fitted maximal effect.
Structure (SMILES),"activity, negative = toxicity",Potency
Cc1c2c(nc3ccccc13)SC(C(Cl)Cl)C2 (stereo not given),inactive: 2.16%,–
Cc1cc(=O)[nH]c(N[N+](=O)[O-])n1,inactive: 5.8%,–
O=P1(N(CCCl)CCCl)OCCCN1CCCl (stereo not given),inactive: 1.28%,–
O=P1(N(CCCl)CCCl)Nc2ccccc2N1,inactive: 5.33%,–
COc1ccc2nc(NP(=O)(c3ccccc3)c3ccccc3)sc2c1,inactive: -9.85%,–
COc1cc(I)ccc1[As](=O)(O)O,inactive: -14.1%,–
O=[N+]([O-])c1cc(Oc2ccc([N+](=O)[O-])cc2C(F)(F)F)cc([N+](=O)[O-])c1,inactive: 10.8%,–
COc1ccc(N/C(=N/P(=O)(N2CCOCC2)N2CCOCC2)N2CCOCC2)cc1,inactive: 19.3%,–
O=[As](O)(c1ccc(O)cc1)c1ccccc1O,inactive: -8.42%,–
C[As](=O)(O)c1cccc(C(=O)O)c1,inactive: -2.25%,–
Cc1ccc(OP(=O)(Nc2ccc([N+](=O)[O-])cn2)Oc2ccc(C)cc2)cc1,inactive: 5.03%,–
Cc1ccc2nc3c(c(C)c2c1)CC(C(Cl)Cl)S3 (stereo not given),inactive: -17.7%,–
ClCCSc1nnc(-c2cccnc2)o1,inactive: 5.99%,–
CC(C)c1ccc(OP(=O)(Nc2ccccn2)Oc2ccccc2F)cc1 (stereo not given),inactive: 8.22%,–
COC(=O)C1(C)COP(=O)(N2CCCCCC2)OC1 (stereo not given),inactive: 27.4%,–
CCN(CC)C(=S)SC(NC=O)C(Cl)(Cl)Cl (stereo not given),inactive: -6.2%,–
O=C(OC1CN2CCC1CC2)c1cccc2[nH]cnc12 (stereo not given),inactive: 5.21%,–
CC(C)NC(=O)NP(=O)(Oc1ccccc1)Oc1ccccc1,inactive: 0.96%,–
CCOC(=O)Nc1ccc([As](=O)(O)O)c(O)c1,inactive: 17.9%,–
O=C(O)C(O)c1ccc(N(CCCl)CCCl)cc1 (stereo not given),inactive: -7.43%,–
CC1CCNP(=O)(N(CCCl)CCCl)O1 (stereo not given),inactive: 3.89%,–
COP(=O)(OC)N1CC1c1ccccc1 (stereo not given),inactive: 7.36%,–
Cc1cc(SC(NC(=O)c2ccccc2)C(Cl)(Cl)Cl)nc(C(C)C)n1 (stereo not given),inactive: -4.59%,–
O=P(Nc1ccccn1)(c1cccc2ccccc12)c1cccc2ccccc12,inactive: -4.26%,–
Cc1cc(SC(NC=O)C(Cl)(Cl)Cl)ncn1 (stereo not given),inactive: -3.25%,–

Structure (SMILES),"activity, negative = toxicity",Potency
O=[N+]([O-])c1ccc(Nc2ccc(Oc3ccc([N+](=O)[O-])cc3[N+](=O)[O-])cc2)c([N+](=O)[O-])c1,inactive: -0.843%,–
COP1(=S)c2c(C)nn(CCC#N)c2N=C(c2ccc(F)cc2)N1C (stereo not given),inactive: 25.8%,–
O=C(O)C(=O)c1ccc(N(CCCl)CCCl)cc1,inactive: -15.3%,–
O=C(COc1ccccc1)OC1CN2CCC1CC2 (stereo not given),inactive: 9.07%,–
O=C(Nc1ccncc1[N+](=O)[O-])c1ccc([N+](=O)[O-])cc1[N+](=O)[O-],inactive: -13.5%,–
O=C(OC1CN2CCC1CC2)c1cccc([N+](=O)[O-])c1 (stereo not given),inactive: 5.86%,–
CSc1ccc(Nc2c([N+](=O)[O-])cc([N+](=O)[O-])cc2[N+](=O)[O-])cc1,–,active: 16.4 µM
CCOC(=O)c1ccc(NC(=O)C(C)(CCl)SC)cc1 (stereo not given),inactive: 10.7%,–
CCC(C)N(CC(C)C)C(=S)SC(NC(C)=O)C(Cl)(Cl)Cl (stereo not given),inactive: -24.1%,–
O=P1(Nc2ccccn2)COc2ccccc2OC1,inactive: 7.19%,–
CCOP(=O)(NC(=NC(C)c1ccccc1)NC(C)c1ccccc1)OCC (stereo not given),inactive: -2.68%,–
CN(CCCl)Cc1cc(Cl)c(NC2=NCCN2)c(Cl)c1,inactive: -3.89%,–
CCOP(=O)(Nc1ccc(C)cn1)OCC,inactive: -4.23%,–
O=P1(N(CCCl)CCCl)NCCC(C(F)(F)F)O1 (stereo not given),inactive: -1.7%,–
Clc1n[nH]nc1-c1nn[nH][15n]1,inactive: -2.45%,–
CC(C)(C)C(=O)NC(Sc1ncccn1)C(Cl)(Cl)Cl (stereo not given),inactive: -4.74%,–
COc1ccccc1CNC(=O)COC(=O)C(O)(c1ccccc1)c1ccccc1,inactive: -2.41%,–
CC(C)/C=N\N=C(\N)N[N+](=O)[O-],inactive: 21.8%,–
CN(C(=O)Cc1ccc(Cl)c(Cl)c1)[C@@H]1CCCC[C@H]1N1CCCC1,inactive: -5.2%,–
CC1(CBr)Cn2c(nc3ccccc3c2=O)S1 (stereo not given),inactive: 1.37%,–
Cc1nn(-c2ccccc2)c2c1P(=O)(N1CCOCC1)N(C)C(c1ccccc1)=N2 (stereo not given),inactive: 18.5%,–
Cc1ccc(C(=O)OC2CN3CCC2CC3)cc1 (stereo not given),inactive: -2.61%,–
O=C(/C=C/c1ccccc1)OC1CN2CCC1CC2 (stereo not given),inactive: 0.0624%,–
CCCC1OP(=O)(Nc2ccccc2)OCC1CC (stereo not given),inactive: 1.96%,–
Cc1ccc(S(=O)(=O)N(CCCN)CCCc2c(C)nc(N)[nH]c2=O)cc1,inactive: -16.4%,–

Structure (SMILES),"activity, negative = toxicity",Potency
O=P1(Nc2ncccn2)COc2ccccc2OC1,inactive: 15.2%,–
Nc1cccc([As](=O)(O)c2ccccc2)c1,inactive: 2.3%,–
O=P1(Nc2ccc(Br)cn2)COc2ccccc2OC1,inactive: 0.599%,–
NS(=O)(=O)c1cccc(NC(=O)COC(=O)C(O)(c2ccccc2)c2ccccc2)c1,inactive: 7.34%,–
Cc1ccc(OCC(=O)OC2CN3CCC2CC3)cc1 (stereo not given),inactive: 13.5%,–
O=[As](O)(c1cccs1)c1cccs1,inactive: 0.859%,–
CCOP1(=S)c2c(C)nn(CCC#N)c2N=C(c2ccccc2F)N1C (stereo not given),inactive: -5.46%,–
O=P(Nc1nccs1)(c1ccccc1)c1nc2ccccc2s1 (stereo not given),inactive: -24.9%,–
O=P(Nc1nccs1)(Oc1ccccc1)Oc1ccccc1,inactive: 11%,–
CS(=O)(=O)c1cc([N+](=O)[O-])c2no[n+]([O-])c2c1,inactive: -17.2%,–
Nc1ccccc1[As](=O)(O)c1ccccc1,inactive: -13.7%,–
O=C(O)COc1ccc([As](=O)(O)O)cc1[N+](=O)[O-],inactive: 29.3%,–
NC(=O)Nc1ccc([As](=O)(O)O)cc1,inactive: 8.17%,–
N#CCCN(C(=O)COC(=O)C(O)(c1ccccc1)c1ccccc1)c1ccc(F)cc1,inactive: -19.3%,–
CN(C(=O)Cc1ccccc1)[C@@H]1CC[C@]2(CCCO2)C[C@H]1N1CCCC1,inactive: 7.95%,–
CCOP1(=S)c2c(C)nn(CCC#N)c2N=C(c2ccc(F)cc2)N1C (stereo not given),inactive: 9.67%,–
CN(C)C(=O)c1cc([N+](=O)[O-])cc2c1-c1c(cc([N+](=O)[O-])cc1[N+](=O)[O-])C2=O,–,active: 8.2 µM
O=[N+]([O-])c1ccc2c(c1)nnn2O,inactive: 1.09%,–
CN(C(=O)Cc1ccc(Cl)c(Cl)c1)[C@H]1CC[C@@]2(CCCO2)C[C@@H]1N1CCCC1,inactive: -10.1%,–
O=C(OC1CN2CCC1CC2)c1ccc(Cl)cc1 (stereo not given),inactive: 2.06%,–
O=[As](O)(O)c1cccnc1,inactive: 9.53%,–
CS(=O)(=O)c1ccc(Cl)c(NC(=O)COC(=O)C(O)(c2ccccc2)c2ccccc2)c1,inactive: 4.95%,–
O=[As](O)(c1cccc(O)c1)c1cccc(O)c1,inactive: 6.47%,–
Cc1cccc(OCC(=O)OC2CN3CCC2CC3)c1 (stereo not given),inactive: 12.8%,–
Cc1ccc(NCCc2c([N+](=O)[O-])cc([N+](=O)[O-])cc2[N+](=O)[O-])cc1,inactive: -1.25%,–
